Measurements taken from US20040049009A1, “Methods for improving the antagonistic/agonistic properties of peptidic antagonists/agonists of the corticotropin-releasing factor receptor (crfr)” (priority 2000, published 2004).
Like-named read-outs stand apart in the source and are kept apart here.

Amino acid sequences for entries named in this document (tags omitted). Residues count along the entry.
UniProt Q60748, 1-431 isoform Q60748-2: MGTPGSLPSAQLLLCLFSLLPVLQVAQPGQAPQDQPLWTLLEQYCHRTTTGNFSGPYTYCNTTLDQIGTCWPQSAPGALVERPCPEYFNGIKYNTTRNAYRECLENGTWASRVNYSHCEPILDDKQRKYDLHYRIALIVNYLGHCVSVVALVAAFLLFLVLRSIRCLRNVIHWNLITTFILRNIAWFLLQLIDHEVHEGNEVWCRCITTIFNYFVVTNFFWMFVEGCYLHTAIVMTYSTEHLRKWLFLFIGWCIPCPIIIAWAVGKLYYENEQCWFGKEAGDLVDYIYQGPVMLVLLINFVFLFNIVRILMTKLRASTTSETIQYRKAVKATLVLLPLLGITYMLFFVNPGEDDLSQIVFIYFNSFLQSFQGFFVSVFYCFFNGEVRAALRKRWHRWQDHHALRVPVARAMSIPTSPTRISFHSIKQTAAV

Assays:
[1] = from Brauns et al. (16); cited from earlier work
[2] = Isoelectric focusing (IEF); assay type: physicochemical; details: determined by isoelectric focussing
[3] = biological target: T1, rCRFR1 (Rattus norvegicus, UniProt P35353)
T1 sequence (P35353 24-415): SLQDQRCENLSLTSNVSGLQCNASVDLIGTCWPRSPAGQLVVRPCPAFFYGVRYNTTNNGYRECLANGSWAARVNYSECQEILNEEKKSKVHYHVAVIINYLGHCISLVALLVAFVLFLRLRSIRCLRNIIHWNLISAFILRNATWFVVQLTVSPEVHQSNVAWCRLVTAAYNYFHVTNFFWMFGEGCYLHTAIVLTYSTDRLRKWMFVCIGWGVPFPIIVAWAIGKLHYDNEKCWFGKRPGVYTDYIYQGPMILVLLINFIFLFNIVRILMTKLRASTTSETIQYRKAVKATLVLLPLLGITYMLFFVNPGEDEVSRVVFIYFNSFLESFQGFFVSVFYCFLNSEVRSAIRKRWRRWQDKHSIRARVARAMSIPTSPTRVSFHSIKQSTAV

[4] = biological target: T2, rCRFBP (Rattus norvegicus, UniProt P24388); experiment: Competitive binding to rCRFBP, scintillation proximity assay with [125I-Tyr0]h/rCRF; details: 0.1 nM [125I-Tyr0]h/rCRF, n.b. = no specific binding with up to 3 μM inhibitor; for IC50: read-out: IC50 rCRFBP
T2 construct: made in house; host or cells: HEK-293 cells, stably transfected; culture medium holding the secreted protein was used
T2 sequence (P24388 25-322): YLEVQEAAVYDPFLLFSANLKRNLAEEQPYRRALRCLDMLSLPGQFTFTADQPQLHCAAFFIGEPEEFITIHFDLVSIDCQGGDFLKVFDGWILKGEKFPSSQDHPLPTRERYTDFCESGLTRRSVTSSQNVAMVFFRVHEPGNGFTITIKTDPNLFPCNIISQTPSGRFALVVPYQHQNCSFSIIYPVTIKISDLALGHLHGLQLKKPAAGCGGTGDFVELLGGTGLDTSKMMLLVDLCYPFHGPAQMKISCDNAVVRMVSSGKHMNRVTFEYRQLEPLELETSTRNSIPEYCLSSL

[5] = biological target: T3, mCRFR2β (Mus musculus, UniProt Q60748); experiment: Competitive binding to mCRFR2β, SPA on HEK-293 membrane fractions with [125I-Tyr0]Svg
T3 construct: expressed in transfected cells

[6] = read-out: IC50 mCRFR2β; 0.05 nM [125I-Tyr0]Svg

| Substance | maximum solubility (cmax) in aCSF [1] | Isoelectric point [2] | IC50 [3] | IC50 rCRFBP [4] | IC50 ([5]; 0.05 nM [125I-Tyr0]Svg; read-out: IC50 mCRFR2β) | IC50 [4] | IC50 [5, 6] |
| --- | --- | --- | --- | --- | --- | --- | --- |
| anti-sauvagine-30 [aSvg-30] | >4000^4 μM | >9.5 | 370 nM | n.b. | 0.3 nM | – | – |
| h/rCRF | – | 5.9 | 1.6 nM | – | – | 0.54 nM | 42 nM |
| oCRF | – | 6.4 | 1 nM | – | – | 470 nM | 200 nM |
| α-helical CRF^9-41 [α-hel-CRF^9-41] | 1480^4 μM | 5.3 | 61 nM | – | – | 1 nM | 4.3 nM |
